# Biological target: BSA (Bos taurus, UniProt P02769)
# Protein sequences, listed by entry. Tags and fused reporters are not part of them. Residues count along the entry.
# UniProt P02769, 25-607: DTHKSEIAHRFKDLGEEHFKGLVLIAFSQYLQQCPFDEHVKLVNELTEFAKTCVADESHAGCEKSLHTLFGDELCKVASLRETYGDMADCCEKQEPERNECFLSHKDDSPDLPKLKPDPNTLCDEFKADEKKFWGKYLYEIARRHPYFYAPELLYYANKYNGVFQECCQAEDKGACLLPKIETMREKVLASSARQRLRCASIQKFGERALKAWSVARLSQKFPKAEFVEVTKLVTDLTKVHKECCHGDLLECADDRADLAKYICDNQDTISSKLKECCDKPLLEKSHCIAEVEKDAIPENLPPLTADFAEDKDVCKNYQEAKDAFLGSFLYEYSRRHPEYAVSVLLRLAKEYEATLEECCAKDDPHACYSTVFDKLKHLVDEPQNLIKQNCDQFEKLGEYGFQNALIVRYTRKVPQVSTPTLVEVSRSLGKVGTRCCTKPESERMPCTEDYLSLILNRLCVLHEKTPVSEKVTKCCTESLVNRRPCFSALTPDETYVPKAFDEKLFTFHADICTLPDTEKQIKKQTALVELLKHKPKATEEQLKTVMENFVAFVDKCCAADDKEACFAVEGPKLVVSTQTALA
# Type: binding, bovine
# Details: BSA band at 278 nm
row,SMILES,"Chromism (% H), hyperchromism [%]"
1,[Co+2].[O-]c1ccccc1N=Cc1ccc(N2CCOCC2)cc1.[O-]c1ccccc1N=Cc1ccc(N2CCOCC2)cc1.c1ccc(-c2ccccn2)nc1 [(2)],50.43
2,[Ni+2].[O-]c1ccccc1N=Cc1ccc(N2CCOCC2)cc1.[O-]c1ccccc1N=Cc1ccc(N2CCOCC2)cc1.c1ccc(-c2ccccn2)nc1 [(3)],54.61
3,[Mn+2].[O-]c1ccccc1N=Cc1ccc(N2CCOCC2)cc1.[O-]c1ccccc1N=Cc1ccc(N2CCOCC2)cc1.c1ccc(-c2ccccn2)nc1 [(1)],57.41
